# Experimental data as given in patent US9796710B2, “Dihydropyrrolopyridine inhibitors of ROR-gamma” (Vitae Pharmaceuticals, Inc., priority 2014, dated 2017).
# Chains of the proteins cited; added tags and fusions are not shown. A line that says so, or that is headed by a name, gives the form on record, which may keep a tag or linker. Residues count along the entry.
# UniProt P51449, 269-508 limits assumed: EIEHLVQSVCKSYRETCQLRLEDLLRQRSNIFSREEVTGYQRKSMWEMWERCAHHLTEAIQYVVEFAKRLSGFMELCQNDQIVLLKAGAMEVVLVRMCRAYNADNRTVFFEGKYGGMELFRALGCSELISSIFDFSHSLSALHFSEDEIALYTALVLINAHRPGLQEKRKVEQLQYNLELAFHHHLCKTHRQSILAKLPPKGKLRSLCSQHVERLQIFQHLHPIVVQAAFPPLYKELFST
# UniProt P51449, 25-518 with tags or gaps limits assumed: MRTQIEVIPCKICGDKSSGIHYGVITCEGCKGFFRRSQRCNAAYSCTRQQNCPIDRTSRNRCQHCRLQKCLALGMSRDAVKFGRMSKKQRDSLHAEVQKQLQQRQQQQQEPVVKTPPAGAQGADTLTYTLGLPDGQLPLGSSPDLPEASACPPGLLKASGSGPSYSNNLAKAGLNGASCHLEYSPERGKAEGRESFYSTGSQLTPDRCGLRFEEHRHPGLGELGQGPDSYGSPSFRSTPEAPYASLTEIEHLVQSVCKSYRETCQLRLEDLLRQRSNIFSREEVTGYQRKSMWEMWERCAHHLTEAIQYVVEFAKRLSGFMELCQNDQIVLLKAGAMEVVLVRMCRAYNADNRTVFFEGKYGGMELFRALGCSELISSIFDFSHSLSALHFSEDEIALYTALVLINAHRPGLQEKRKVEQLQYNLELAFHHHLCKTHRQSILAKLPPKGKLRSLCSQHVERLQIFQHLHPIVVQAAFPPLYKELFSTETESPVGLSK
# UniProt Q12809, whole entry: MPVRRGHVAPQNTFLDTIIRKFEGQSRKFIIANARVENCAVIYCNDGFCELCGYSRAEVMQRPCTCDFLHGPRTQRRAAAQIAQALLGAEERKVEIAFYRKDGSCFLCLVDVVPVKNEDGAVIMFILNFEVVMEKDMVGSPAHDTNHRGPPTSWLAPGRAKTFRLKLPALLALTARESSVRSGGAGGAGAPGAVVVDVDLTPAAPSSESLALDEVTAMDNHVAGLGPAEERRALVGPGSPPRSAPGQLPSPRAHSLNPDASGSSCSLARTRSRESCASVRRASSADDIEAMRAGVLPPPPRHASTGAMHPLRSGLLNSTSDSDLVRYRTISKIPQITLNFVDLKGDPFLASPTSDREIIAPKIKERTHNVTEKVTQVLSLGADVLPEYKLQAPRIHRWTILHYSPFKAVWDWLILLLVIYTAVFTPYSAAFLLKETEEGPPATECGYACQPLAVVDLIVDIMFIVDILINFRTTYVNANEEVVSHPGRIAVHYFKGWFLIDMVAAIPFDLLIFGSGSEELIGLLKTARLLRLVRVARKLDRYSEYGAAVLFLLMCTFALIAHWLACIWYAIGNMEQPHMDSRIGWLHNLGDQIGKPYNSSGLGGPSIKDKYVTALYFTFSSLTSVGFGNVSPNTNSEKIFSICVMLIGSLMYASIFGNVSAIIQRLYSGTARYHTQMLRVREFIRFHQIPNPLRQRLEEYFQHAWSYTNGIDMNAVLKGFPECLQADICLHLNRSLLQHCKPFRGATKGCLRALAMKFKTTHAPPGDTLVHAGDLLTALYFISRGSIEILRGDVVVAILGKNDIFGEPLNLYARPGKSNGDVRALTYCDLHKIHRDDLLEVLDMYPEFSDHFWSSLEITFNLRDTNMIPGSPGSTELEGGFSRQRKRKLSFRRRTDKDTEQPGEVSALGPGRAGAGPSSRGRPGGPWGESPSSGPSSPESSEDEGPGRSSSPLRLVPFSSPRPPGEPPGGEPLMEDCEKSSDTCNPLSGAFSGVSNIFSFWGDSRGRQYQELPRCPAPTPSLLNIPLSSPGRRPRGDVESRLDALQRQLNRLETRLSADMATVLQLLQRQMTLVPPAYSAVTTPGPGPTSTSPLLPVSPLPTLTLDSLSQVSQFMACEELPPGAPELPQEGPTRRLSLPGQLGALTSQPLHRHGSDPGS
# Experiments:
# [1] = molecular target: full-length RORγt in Jurkat cells (Homo sapiens (Human), UniProt P51449); details: read-out: RORγt5X IC50 Range* (nM) (Assay 2)
# [2] = molecular target: hERG (human ether-a-go-go-related gene) potassium ion channel (Homo sapiens (Human), UniProt Q12809)
# [3] = molecular target: recombinant RORγ Ligand Binding Domain (LBD) protein (Homo sapiens (Human), UniProt P51449); test: Radio-Ligand RORγ Binding Assay (Assay 1); details: read-out: RORγ Binding Ki Range* (nM) (Assay 1)
# [4] = tested on: IL-17A production; test: Human Whole Blood Assay (Assay 3); details: read-out: 50% Human Whole Blood Assay IC50, nM* (Assay 3); IL-17A secretion, CytoStim, 48 h, 50% blood/media
"IC50 ([1]; Jurkat cells, Nanoluc luciferase reporter) [nM]","Ki ([3]; cell-free competition with 25-hydroxy [26,27-3H]-cholesterol) [nM]",Structure (SMILES),inhibition [2] [%],IC50 [4] [nM],IC50 [1] [nM],Ki [3] [nM]
< 100,< 100,CC(C)[C@H]1c2ncc(C(=O)N[C@@H](CO)c3ccc(S(C)(=O)=O)cc3)cc2CN1C[C@H]1CC[C@H](C(F)(F)F)CC1,3.2,100 to 200,,
,,CC(C)[C@H]1c2ncc(C(=O)N[C@@H](CO)c3ccc(S(C)(=O)=O)cc3)cc2CN1C[C@H]1CC[C@@H](C(F)(F)F)CC1,,,> 1000,< 100
,,CCS(=O)(=O)c1ccc([C@H](CO)NC(=O)c2cnc3c(c2)CN(C[C@H]2CC[C@H](C(F)(F)F)OC2)[C@H]3C(C)C)cc1,,< 100,< 100,< 100

# Where two headings read alike, the source gives them in different places.
